Assay results as given in the Human Domainome abundance scans (Beltran et al. 2025).
± gives the uncertainty stated by the source.

B1: X-ray repair cross-complementing protein 6, residues 558 to 609; numbered along this chain, P12956 (parent)
chain: EYSEEELKTHISKGTLGKFTVPMLKEACRAYGLKSGLKKQELLEALTKHFQD

Variants of: B1
Experiment: abundance fitness (aPCA) (normalised: wild type 0, dead -1); higher = more abundant; growth selection in yeast, the domain comes from the species named
Settings: Homo sapiens

In order of rising abundance fitness:
1. EYSEEELKTHISKGTLGKFTVPMLKEACRAYGLKSGLKKQELLEAHTKHFQD [L46H]  -0.987 ± 0.36
2. EYSEEELKTHISKGTLGKFTVPMLKEACRAYGLKSGLKKQELLEATTKHFQD [L46T]  -0.916 ± 0.2
3. EYSEEELKTHISKGTLGKFTVPMLKEACRAYGLKSGLKKQELLEAMTKHFQD [L46M]  -0.874 ± 0.22
4. EYSEEELKTHISKGTLGKFTVPMLKEACRAYGLKSGLKKQELLEANTKHFQD [L46N]  -0.832 ± 0.36
5. EYSEEELKTHISKGTLGKFTVPMLKEACRAYGLKSGLKKQELLEACTKHFQD [L46C]  -0.805 ± 0.32
6. EYSEEELKTHISKGTLGKFTVPMLKEACRAYGLKSGLKKQELLEAETKHFQD [L46E]  -0.798 ± 0.23
7. EYSEEELKTHISKGTLGKFTVPMLKEACRAYGLKSGLKKQELLEAQTKHFQD [L46Q]  -0.78 ± 0.38
8. EYSEEELKTHISKGTLGKFTVPMLKEACRAYGLKSGLKKQELLEAATKHFQD [L46A]  -0.777 ± 0.12
9. EYSEEELKTHISKGTLGKFTVPMLKEACRAYGLKSGLKKQELLEARTKHFQD [L46R]  -0.773 ± 0.13
10. EYSEEELKTHISKGTLGKFTVPMLKEACRAYGLKSGLKKQELLEAFTKHFQD [L46F]  -0.772 ± 0.18
11. EYSEEELKTHISKGTLGKFTVPMLKEACRAYGLKSGLKKQELLEYLTKHFQD [A45Y]  -0.752 ± 0.16
12. EYSEEELKTHISKGTLGKFTVPMLKEACRAYGLKSGLKKQELLEAYTKHFQD [L46Y]  -0.706 ± 0.071
13. EYSEEELKTHISKGTLGKFTVPMLKEACRAYGLKSGLKKQELLEPLTKHFQD [A45P]  -0.654 ± 0.1
14. EYSEEELKTHISKGTLGKFTVPMLKEACRAYGLKSGLKKQELLEAITKHFQD [L46I]  -0.649 ± 0.38
15. EYSEEELKTHISKGTLGKFTVPMLKEACRAYGLKSGLKKQELLEWLTKHFQD [A45W]  -0.641 ± 0.054
16. EYSEEELKTHISKGTLGKFTVPMLKEACRAYGLKSGLKKQELLEALPKHFQD [T47P]  -0.614 ± 0.15
17. EYSEEELKTHISKGTLGKFTVPMLKEACRAYGLKSGLKKQELLEAGTKHFQD [L46G]  -0.597 ± 0.045
18. EYSEEELKTHISKGTLGKFTVPMLKEACRAYGLKSGLKKQELLEALWKHFQD [T47W]  -0.585 ± 0.082
19. EYSEEELKTHISKGTLGKFTVPMLKEACRAYGLKSGLKKQELLEHLTKHFQD [A45H]  -0.577 ± 0.083
20. EYSEEELKTHISKGTLGKFTVPMLKEACRAYGLKSGLKKQELLEDLTKHFQD [A45D]  -0.533 ± 0.081
21. EYSEEELKTHISKGTLGKFTVPMLKEACRAYGLKSGLKKQELLEAPTKHFQD [L46P]  -0.531 ± 0.068
22. EYSEEELKTHISKGTLGKFTVPMLKEACRAYGLKSGLKKQELLEILTKHFQD [A45I]  -0.486 ± 0.09
23. EYSEEELKTHISKGTLGKFTVPMLKEACRAYGLKSGLKKQELLEALNKHFQD [T47N]  -0.465 ± 0.12
24. EYSEEELKTHISKGTLGKFTVPMLKEACRAYGLKSGLKKQELLEAWTKHFQD [L46W]  -0.415 ± 0.14
25. EYSEEELKTHISKGTLGKFTVPMLKEACRAYGLKSGLKKQELLEADTKHFQD [L46D]  -0.388 ± 0.053
26. EYSEEELKTHISKGTLGKFTVPMLKEACRAYGLKSGLKKQELLEALEKHFQD [T47E]  -0.386 ± 0.098
27. EYSEEELKTHISKGTLGKFTVPMLKEACRAYGLKSGLKKQELLEALFKHFQD [T47F]  -0.38 ± 0.21
28. EYSEEELKTHISKGTLGKFTVPMLKEACRAYGLKSGLKKQELLEALKKHFQD [T47K]  -0.372 ± 0.12
29. EYSEEELKTHISKGTLGKFTVPMLKEACRAYGLKSGLKKQELLEASTKHFQD [L46S]  -0.361 ± 0.093
30. EYSEEELKTHISKGTLGKFTVPMLKEACRAYGLKSGLKKQELLEALCKHFQD [T47C]  -0.355 ± 0.13
31. EYSEEELKTHISKGTLGKFTVPMLKEACRAYGLKSGLKKQELLEKLTKHFQD [A45K]  -0.336 ± 0.06
32. EYSEEELKTHISKGTLGKFTVPMLKEACRAYGLKSGLKKQELLEAVTKHFQD [L46V]  -0.327 ± 0.071
33. EYSEEELKTHISKGTLGKFTVPMLKEACRAYGLKSGLKKQELLEALSKHFQD [T47S]  -0.321 ± 0.087
34. EYSEEELKTHISKGTLGKFTVPMLKEACRAYGLKSGLKKQELLEGLTKHFQD [A45G]  -0.294 ± 0.043
35. EYSEEELKTHISKGTLGKFTVPMLKEACRAYGLKSGLKKQELLEALGKHFQD [T47G]  -0.289 ± 0.048
36. EYSEEELKTHISKGTLGKFTVPMLKEACRAYGLKSGLKKQELLEALVKHFQD [T47V]  -0.288 ± 0.075
37. EYSEEELKTHISKGTLGKFTVPMLKEACRAYGLKSGLKKQELLERLTKHFQD [A45R]  -0.273 ± 0.061
38. EYSEEELKTHISKGTLGKFTVPMLKEACRAYGLKSGLKKQELLEALRKHFQD [T47R]  -0.266 ± 0.079
39. EYSEEELKTHISKGTLGKFTVPMLKEACRAYGLKSGLKKQELLELLTKHFQD [A45L]  -0.193 ± 0.039
40. EYSEEELKTHISKGTLGKFTVPMLKEACRAYGLKSGLKKQELLEALMKHFQD [T47M]  -0.166 ± 0.12
41. EYSEEELKTHISKGTLGKFTVPMLKEACRAYGLKSGLKKQELLEALDKHFQD [T47D]  -0.141 ± 0.075
42. EYSEEELKTHISKGTLGKFTVPMLKEACRAYGLKSGLKKQELLESLTKHFQD [A45S]  -0.14 ± 0.064
43. EYSEEELKTHISKGTLGKFTVPMLKEACRAYGLKSGLKKQELLENLTKHFQD [A45N]  -0.121 ± 0.098
44. EYSEEELKTHISKGTLGKFTVPMLKEACRAYGLKSGLKKQELLECLTKHFQD [A45C]  -0.116 ± 0.082
45. EYSEEELKTHISKGTLGKFTVPMLKEACRAYGLKSGLKKQELLEALLKHFQD [T47L]  -0.114 ± 0.065
46. EYSEEELKTHISKGTLGKFTVPMLKEACRAYGLKSGLKKQELLEVLTKHFQD [A45V]  -0.1 ± 0.054
47. EYSEEELKTHISKGTLGKFTVPMLKEACRAYGLKSGLKKQELLEALAKHFQD [T47A]  -0.091 ± 0.08
48. EYSEEELKTHISKGTLGKFTVPMLKEACRAYGLKSGLKKQELLEALIKHFQD [T47I]  -0.067 ± 0.059
49. EYSEEELKTHISKGTLGKFTVPMLKEACRAYGLKSGLKKQELLEQLTKHFQD [A45Q]  -0.015 ± 0.071
50. EYSEEELKTHISKGTLGKFTVPMLKEACRAYGLKSGLKKQELLETLTKHFQD [A45T]  -0.003 ± 0.048
